{
  "source": "patent US12076313B2",
  "about": "(CELISTA PHARMACEUTICALS LLC, priority 2020, dated 2024)",
  "origin": "cited, not measured here",
  "test_system": "interferons (IFNs)",
  "settings": "treated mice; cited from earlier work",
  "data": [
    {"smiles": "CC(C)Cn1cnc2c(N)nc3ccccc3c21", "note": "[Imiquimod, 1-(2-methylpropyl)-1H-imidazo[4,5-c]quinolin-4-amine]", "values": [
      {"measurement": "levels of circulating IFN activity", "result": "≤ 2,000 U/ml"}
    ]}
  ]
}
